A short description of this series: 223Ra organ distribution in mice pre-treated with ion-channel modulator. It counts as in vivo, C57/Bl6 mice. Here is the method:
Healthy male C57/Bl6 mice were randomized received a combination treatment with intraperitoneal injection of Amiloride (inhibitor, red) or NS-1619 (activator, green) or saline (control, grey) followed by a clinical dose of ^223RaCl2 1 h post-drug administration. Radioactive organ distribution was then measured at 15 min, 1 h and 4 h post ^223Ra treatment. […] Comparing bone uptake, as early as 15 min, osseous absorption is was half for the NS-1619-treated group as compared to the amiloride or the control group.
Male C57Bl/6 aged 10 weeks (n=6 per treated group) were administered intraperitoneally Amiloride (12.5 mg/kg-150 uL 2% v/v DMSO) or NS-1619 (1 mg/kg-150 uL 2% v/v DMSO) or saline 1 h prior ^223RaCl2 i.v. administration (3.7 KBq/100 uL buffer). Animals were kept awake between each injection. 15 min; 1 h and 4 h post ^223Ra administration: blood; spleen; kidney; stomach; duodenum; jejunum; ileum; cecum; colon; muscle; fat and bone tibia were harvested, weighed and gamma counted. Gamma counting was conducting utilizing a Perkin Elmer Wizard2 counter with readings of energies set 150-350 KeV, with 10 min reading for each sample. Standard corresponding to 10% of injected activity were measured as well; allowing for the calculation of % Injected activity (% IA) normalized to tissue weight (% IA/g).

Here are results for two compounds from patent US20220152228A1, “COMPOSITIONS AND METHODS FOR RADIOTHERAPY USING CHELATED RADIOTHERAPEUTIC AGENTS AND NON-TARGET TISSUE BLOCKADE” (Washington University, priority 2019, published 2022).

For `N=C(N)NC(=O)c1nc(Cl)c(N)nc1N` [Amiloride], where the note is “4 h p.i.”, the “kidney uptake (% IA) of 223Ra” value is reported as “delayed excretion”. Regarding `O=c1[nH]c2cc(C(F)(F)F)ccc2n1-c1cc(C(F)(F)F)ccc1O` [NS-1619], under “15 min post 223RaCl2, modulator i.p. 1 h before”, the “osseous absorption of 223Ra relative to amiloride or control group” value was “half”.
